Assay results: patent publication US20090280196A1, “CISSUS QUADRANGULARIS PLANT EXTRACTS FOR TREATING OSTEOPOROSIS AND THE EXTRACTION PROCESS THEREOF” (priority 2006, published 2009)

System: MC3T3 cells
Test: Bone formation experiment, ALP activity
Assay type: cell-based, murine
Conditions: BMP-2 30 ng/ml, positive control
From the text: One of the most frequently assayed biochemical markers is alkaline phosphatase, which is simple to measure biochemically. (Sodek & Berkman, 1987). Its expression pattern in osteoblasts (Doty & Schofield, 1976; Stein et al. 1996) and its involvement in mineralisation have been extensively documented (Wuthier & Register, 1984). However, many cell types in bone or marrow stroma contain alkaline phosphatase, such as hypertrophic chondrocytes (Wuthier & Register, 1984) and adipocytes (Beresford et al. 1993), while fibroblastic cells also have a low concentration of this enzyme. The alkaline phosphatase activity can provide a good indicator of osteoblast cells if the cartilage and marrow are removed by dissection. The present invention evaluates the bone formation that has occurred through Alkaline phosphatase assay and the proliferation that has occurred through Alamar blue assay.
MC3T3 cell lines were used for the bone formation studies. These cells are murine osteogenic mesenchymal precursor cells, which can be differentiated into osteoclasts by ascorbic acid and beta-glycerol phosphate.
The osteoblasts (MC3T3 cells) were seeded at a density of 75000 cells per well in 24 plates. The cells were culture for one day before the plant extracts were added. […]

B1: BMP-2: bone morphogenic protein -2, positive control, induces the differentiation of the osteoblasts (protein, UniProt P12643 283-396, looked up)
Bone morphogenetic protein 2: QAKHKQRKRLKSSCKRHPLYVDFSDVGWNDWIVAPPGYHAFYCHGECPFPLADHLNSTNHAIVQTLVNSVNSKIPKACCVPTELSAISMLYLDENEKVVLKNYQDMVVEGCGCR
  ALP activity compared to the negative control: induced
